# Vapor pressure values, as collected for the OPERA models

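These are experimental values that the OPERA curators gathered from public databases to train and test their QSAR models. A listed value is a point estimate from one report or more. Method, purity and exact conditions of the single measurements are not given. A value may pool stereoisomers or salt forms, and the file does not say which form was measured. Some upstream entries may be estimates or bounds without being marked so.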

Vapor pressures (log10 mmHg) refer to near room temperature, 15 to 30 °C; higher is more volatile.

CC(=O)OCCOc1ccc(C(C)(C)c2ccc(OCCOC(C)=O)cc2)cc1 is reported with vapor pressure -9.796 (log10 mmHg).
O=C(c1ccc2c(c1)C(=O)OC2=O)c1ccc2c(c1)C(=O)OC2=O is reported with vapor pressure -12.31 (log10 mmHg).
CCOc1cc(CO)ccc1O [3-Ethoxy-4-hydroxybenzyl alcohol] is reported with vapor pressure -4.694 (log10 mmHg).
Clc1cc(Cl)cc(-c2c(Cl)ccc(Cl)c2Cl)c1 [2,3,3',5',6-Pentachlorobiphenyl] is reported with vapor pressure -4.595 (log10 mmHg).
Cc1nc(C)c(Cl)c(O)c1Cl [Clopidol] is reported with vapor pressure -3.183 (log10 mmHg).
NC(CC(=O)O)C(=O)[O-].[Na+] (stereo not drawn) [Monosodium aspartate] is reported with vapor pressure -5.398 (log10 mmHg).
O=CC(=O)O [Glyoxylic acid] is reported with vapor pressure 1.088 (log10 mmHg).
CCCCCC[Si](OC)(OC)OC [Hexyltrimethoxysilane] is reported with vapor pressure 0.701 (log10 mmHg).
C=C(C)C(=O)OCC(CC)(COC(=O)C(=C)C)COC(=O)C(=C)C [1,1,1-Trimethylolpropane trimethacrylate] is reported with vapor pressure -4.468 (log10 mmHg).
COC(OC)OC [Trimethoxymethane] is reported with vapor pressure 1.709 (log10 mmHg).
C=C[Si](OC(C)=O)(OC(C)=O)OC(C)=O [Ethenylsilanetriyl triacetate] is reported with vapor pressure -1.7 (log10 mmHg).
C=CC(=O)O[C@H]1C[C@@H]2CC[C@@]1(C)C2(C)C [Isobornyl acrylate] is reported with vapor pressure -1.907 (log10 mmHg).
CC(O)CN(CCCN(C)C)CCCN(C)C (stereo not drawn) [1-{Bis[3-(dimethylamino)propyl]amino}propan-2-ol] is reported with vapor pressure -1.894 (log10 mmHg).
C[Si](Cl)(Cl)C1CCCCC1 [Dichloro(cyclohexyl)methylsilane] is reported with vapor pressure -1.497 (log10 mmHg).
O=C=Nc1ccc(Cc2ccccc2N=C=O)cc1 [1-Isocyanato-2-(4-isocyanatobenzyl)benzene] is reported with vapor pressure -4.979 (log10 mmHg).
O=CNC[C@H](O)[C@@H](O)[C@H](O)[C@H](O)CO [1-Deoxy-1-formamido-D-glucitol] is reported with vapor pressure -4.837 (log10 mmHg).
C#CCCl [1-Propyne, 3-chloro-] is reported with vapor pressure 2.261 (log10 mmHg).
CCCCCCCCOc1ccc(C(=O)c2ccccc2)c(O)c1 [Octabenzone] is reported with vapor pressure -7.471 (log10 mmHg).
CCCCCCCCCC(=O)N(C)C [N,N-Dimethyldecan-1-amide] is reported with vapor pressure -3.084 (log10 mmHg).
CCOC(=O)OC [Carbonic acid, ethyl methyl ester] is reported with vapor pressure 1.444 (log10 mmHg).
FC1(F)C(F)(F)C(F)(F)C2(F)C(F)(F)C(F)(F)C(F)(F)C(F)(F)C2(F)C1(F)F (stereo not drawn) [Perflunafene] is reported with vapor pressure 0.82 (log10 mmHg).
O=C1NC(=O)C2CCCC12 (stereo not drawn) [1,2-Cyclopentanedicarboximide] is reported with vapor pressure -3.764 (log10 mmHg).
C=C(F)C(=O)OC [methyl 2-fluoroacrylate] is reported with vapor pressure 1.724 (log10 mmHg).
O=C(O)[C@H](O)[C@@H](O)C(=O)O [L-Tartaric acid] is reported with vapor pressure -7.068 (log10 mmHg).
CC1CCCCN1CCCOC(=O)c1ccc(Cl)c(Cl)c1 (stereo not drawn) [Piperalin] is reported with vapor pressure -7.011 (log10 mmHg).
O=S(=O)(Oc1ccc(Cl)cc1Cl)c1ccccc1 [2,4-Dichlorophenyl benzenesulfonate] is reported with vapor pressure -3.569 (log10 mmHg).
C=CCCCCCCCCC(=O)O[Si](C)(C)C [Trimethylsilyl 10-undecenoate] is reported with vapor pressure -3.824 (log10 mmHg).
Cc1ccc([Si](Cl)(Cl)Cl)cc1 [Trichloro-p-tolylsilane] is reported with vapor pressure 0.639 (log10 mmHg).
CC(C)(CO)[C@@H](O)C(=O)NCCCO [Dexpanthenol] is reported with vapor pressure -5.45 (log10 mmHg).
CCC(CO)(CO)CO [2-Ethyl-2-(hydroxymethyl)-1,3-propanediol] is reported with vapor pressure -4.348 (log10 mmHg).
C=CCC(=CCC1CC(=O)OC1=O)CC=C (stereo not drawn) [3-[3-(Prop-2-en-1-yl)hexa-2,5-dien-1-yl]oxolane-2,5-dione] is reported with vapor pressure -0.601 (log10 mmHg).
O=C(Oc1ccccc1)n1c(C(F)(F)F)nc2cc(Cl)c(Cl)cc21 [Fenazaflor] is reported with vapor pressure -4.284 (log10 mmHg).
Clc1ccc(-c2c(Cl)cc(Cl)c(Cl)c2Cl)c(Cl)c1 [2,2',3,4,4',6-Hexachlorobiphenyl] is reported with vapor pressure -4.644 (log10 mmHg).
CC1CC(C)S(=O)(=O)C1 (stereo not drawn) [2,4-Dimethylthiolane 1,1-dioxide] is reported with vapor pressure -2.116 (log10 mmHg).
O=C=NCCCCCCn1c(=O)n(CCCCCCN=C=O)c(=O)n(CCCCCCN=C=O)c1=O is reported with vapor pressure -4.935 (log10 mmHg).
CC(=O)Nc1cc(NS(=O)(=O)C(F)(F)F)c(C)cc1C.OCCNCCO [Mefluidide-diolamine] is reported with vapor pressure -7 (log10 mmHg).
Clc1cc(Cl)c2cc(Cl)ccc2c1 [1,3,7-Trichloronaphthalene] is reported with vapor pressure -3.065 (log10 mmHg).
C1CC[Si]2(C1)O[Si]1(CCCC1)O[Si]1(CCCC1)O[Si]1(CCCC1)O2 is reported with vapor pressure -0.607 (log10 mmHg).
CC=CCCC1CCCC(=O)O1 (stereo not drawn) [6-(Pent-3-en-1-yl)tetrahydro-2H-pyran-2-one] is reported with vapor pressure -2.914 (log10 mmHg).
CCCCCCCCCCCCCCCCCCCCCC(=O)[O-].[Ag+] [Silver behenate] is reported with vapor pressure -7.663 (log10 mmHg).
Cc1cc(O)n2ncnc2n1 [5-Methyl[1,2,4]triazolo[1,5-a]pyrimidin-7-ol] is reported with vapor pressure -9.907 (log10 mmHg).
CC/C=C\CCO [(Z)-3-Hexen-1-ol] is reported with vapor pressure 0.229 (log10 mmHg).
Cc1ccc(S(N)(=O)=O)cc1 [4-Toluenesulfonamide] is reported with vapor pressure -5.669 (log10 mmHg).

The 6 highest values of vapor pressure among the entries above:

structure (SMILES)	name	vapor pressure (log10 mmHg)
C#CCCl	1-Propyne, 3-chloro-	2.261
C=C(F)C(=O)OC	methyl 2-fluoroacrylate	1.724
COC(OC)OC	Trimethoxymethane	1.709
CCOC(=O)OC	Carbonic acid, ethyl methyl ester	1.444
O=CC(=O)O	Glyoxylic acid	1.088
FC1(F)C(F)(F)C(F)(F)C2(F)C(F)(F)C(F)(F)C(F)(F)C(F)(F)C2(F)C1(F)F (stereo not drawn)	Perflunafene	0.82

Source: data files of OPERA 2.9 (Mansouri et al.), github.com/kmansouri/OPERA.